Compound activity: PubChem, ICCB-Longwood Screening Facility, Harvard Medical School
HCMV NEC inh = inhibitors of HCMV UL50-UL53 nuclear egress complex interaction; HTRF UL50-UL53 interaction, normalized percent inhibition; inhibition, % (concentration not given with the values); hit rate 0.15% among 190,000; AID 1918969; in the data active = inhibition above about 27%, passing the limit was not always enough
GIV-Gai inh = inhibitors of GIV peptide binding to Galpha-i3, primary screen, biochemical, fluorescence polarization, FITC-GIV GBA peptide, rat Galphai3 | Guanine nucleotide-binding protein G(i) subunit alpha-3 (Rattus norvegicus), P08753 | 90 min; active compounds read low; scaled: aluminum fluoride 0%, vehicle 100% | 210,000 tested, 0.42% active | AID 1224905, 2016 | percent of control (FP), % (no concentration beside the values);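 active means replicate mean at 85% of control or lower, very high polarization wells dropped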;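 further: wells of about 15 µL received 100 nL stock; the first replicate is given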
GIV-Gai FP conf = GIV-Galpha-i3 inhibition, FP confirmation; shares compounds with GIV-Gai inh; FITC-GIV peptide binding to Galphai3, fluorescence polarization; hits give low values; fluorescence polarization, mP at 100 µM; hit rate 38% among 580; AID 1259350;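 active = inhibition score of 15 or more, meaning 100 minus mean polarization as percent of control over three replicates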;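 note: lower mP means peptide displaced from Galphai3 so more inhibition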
GIV-Gai AS conf = confirmation of inhibitors of GIV binding to human Galpha-i3; AlphaScreen Galphai3-GIV binding, purified proteins, 90 min; hits give low values; hit rate 39% among 580; shares compounds with GIV-Gai inh; AlphaScreen counts at 100 µM;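 active = inhibition score at or above a set limit, where the score is 100 minus the three-replicate mean percent of control signal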
Active calls of the source: *; · = no result given. The list is not random: actives were taken first. Their share in the collection is about 0.43%.

By UniProt entry, the sequences of proteins in these tests, tags left out.
Guanine nucleotide-binding protein G(i) subunit alpha-3 (Rattus norvegicus), P08753, UniProt P08753, whole entry, looked up: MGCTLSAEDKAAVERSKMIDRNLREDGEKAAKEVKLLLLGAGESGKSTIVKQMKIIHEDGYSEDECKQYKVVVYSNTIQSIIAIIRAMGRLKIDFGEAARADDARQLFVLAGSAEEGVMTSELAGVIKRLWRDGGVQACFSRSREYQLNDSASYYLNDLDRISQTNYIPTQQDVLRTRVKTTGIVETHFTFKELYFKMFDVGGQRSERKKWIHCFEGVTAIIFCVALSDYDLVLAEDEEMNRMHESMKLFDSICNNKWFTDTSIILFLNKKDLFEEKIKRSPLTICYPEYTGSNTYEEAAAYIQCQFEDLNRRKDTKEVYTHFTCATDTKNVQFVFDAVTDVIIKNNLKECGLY

SMILES	HCMV NEC inh	GIV-Gai inh	GIV-Gai FP conf	GIV-Gai AS conf
CCOC(=O)c1c(C)oc2c1c(C=NC(C)c1ccccc1)c(O)c1ccccc12 (configuration not stated)	·	103	·	·
CCOC(=O)c1c(S(=O)(=O)N2CCC(C(=O)Nc3ccc(Cl)cc3)CC2)c(C)n(C)c1C	·	103	·	·
Oc1ccc(N=Cc2ccccc2O)cc1	7	104	·	·
Oc1ccccc1C=Nc1cccnc1	-5	83*	42*	16309*
COC(=O)C1C(=O)c2cc(OC)c(OC)cc2C1c1ccccc1 (configuration not stated)	6	·	·	·
CCOC(=O)c1noc2ncnc(N3CCc4cc(OC)c(OC)cc4C3C)c12 (configuration not stated)	-18	109	·	·
COc1cccc2cc(-c3ccc(F)cc3)c(=O)oc12	-24	104	·	·
CCOC(=O)/C(C#N)=C/c1ccc(-c2ccc(Br)cc2)o1	12	105	·	·
CCOC(=O)/C(C#N)=C/c1ccc(-c2ccc(Cl)c(C(=O)OC)c2)o1	0	65*	76	22310
Cc1cc2c(n1-c1ccc(C(=O)O)cc1)CCCC2	66*	79*	58*	3001*
Cc1cc2c(n1-c1ccc(C(=O)N3CCN(c4ccccc4)CC3)cc1)CCCCC2	·	101	·	·
O=C(NN1C(=O)c2ccccc2C1=O)c1ccccc1	-8	·	·	·
COc1cscc1C(=O)NC1(O)C(=O)c2ccccc2C1=O	53*	64*	60	46565
COc1ccccc1C(=O)ON1C(=O)c2ccccc2C1=O	-22	93	·	·
O=C(NC1(O)C(=O)c2ccccc2C1=O)c1ccccc1	·	52*	47*	37206
O=C(CCN(CCCN1CCOCC1)C(=O)c1ccc(Br)cc1)N1CCNCC1	7	96	·	·
C=CCn1c(SC(C)C(=O)NC(N)=O)nc2ccccc2c1=O (configuration not stated)	-17	·	·	·
O=C1/C(=C/c2ccncc2)CCC/C1=C\c1ccncc1	-21	51*	51*	18754*
O=C1/C(=C/c2cccnc2)CCCC/C1=C\c1cccnc1	13	·	·	·
COC(=O)c1[nH]c(C(=O)OC)c(O)c1O	-12	59*	65	50522
COC(=O)c1[nH]c(C)c(C(=O)OC)c1C	-6	·	·	·
C/C(N)=C(/C#N)C(=O)COc1ccccc1F	-8	·	·	·
CCC(=O)Nc1ccc(CC)cc1-c1nc2ccccc2n(C(C)C(=O)Nc2cccc(C)c2C)c1=O (configuration not stated)	1	104	·	·
COc1ccc(-c2nc(-c3ccc4c(c3)[nH]c(=O)c(=O)n4C)no2)cc1OC	4	86	81	27124
COc1ccc(-c2nc(-c3ccc4c(c3)[nH]c(=O)c(=O)n4C)no2)cc1	16	103	·	·
COc1ccc(CNC(=O)C2(C)CCCN(S(=O)(=O)c3ccc(NC(C)=O)cc3)C2)cc1 (configuration not stated)	·	107	·	·
O=[N+]([O-])c1ccc(N2CCCCC2)cc1Sc1nc2ccccc2[nH]1	·	88	62	54142
O=[N+]([O-])c1ccc(NCCCO)cc1Sc1nc2ccccc2[nH]1	·	111	·	·
CCCS(=O)(=O)N1CCCC(C(=O)NC(C)C)C1 (configuration not stated)	-31	107	·	·
C=CCNC(=O)C1CCCN(S(=O)(=O)CCC)C1 (configuration not stated)	1	84*	64	51209
O=C(NC1CCCCC1)C1CCN(C(=O)c2ccccc2)CC1	-12	105	·	·
Cn1cc2c3c(cccc31)CN(C(=O)NCC1CCCO1)CC2 (configuration not stated)	·	92	·	·
COCCn1cc2c3c(cccc31)CN(C(=O)NCC1CCCO1)CC2 (configuration not stated)	·	81*	60*	20045
CCC1Oc2ccc(Cl)cc2N(CC(=O)Nc2ccc(CCc3nc4ccccc4[nH]3)cc2)C1=O (configuration not stated)	-30	107	·	·
CC1=NN(c2cccc(C(F)(F)F)c2)C(=O)C1	-12	·	·	·
CC1=NN(c2cc(S(=O)(=O)O)c3cccc(S(=O)(=O)O)c3c2)C(=O)C1	·	59*	60	2889*
Cc1cc(C)nc(NC(c2ccccc2)c2cc(C)sc2NC(=O)c2ccccc2)n1 (configuration not stated)	-8	109	·	·
Cc1cc(C)nc(NC(c2cccc(F)c2)c2cc(C)sc2NC(=O)c2ccccc2)n1 (configuration not stated)	0	69*	65	35362
O=C1c2oc3ccccc3c(=O)c2C(c2cccnc2)N1c1ccccn1 (configuration not stated)	-24	100	·	·

With a hit mark in GIV-Gai FP conf, among the entries above:
compound,GIV-Gai inh,GIV-Gai FP conf,GIV-Gai AS conf
Oc1ccccc1C=Nc1cccnc1,83*,42*,16309*
Cc1cc2c(n1-c1ccc(C(=O)O)cc1)CCCC2,79*,58*,3001*
O=C(NC1(O)C(=O)c2ccccc2C1=O)c1ccccc1,52*,47*,37206
O=C1/C(=C/c2ccncc2)CCC/C1=C\c1ccncc1,51*,51*,18754*
COCCn1cc2c3c(cccc31)CN(C(=O)NCC1CCCO1)CC2 (configuration not stated),81*,60*,20045
